{"source": "PubChem BioAssay AID504765", "about": "(Sanford-Burnham Center for Chemical Genomics, 2011)", "target": "glucose-6-phosphate dehydrogenase-6-phosphogluconolactonase (Plasmodium falciparum 3D7)", "experiment": "PfG6PD inhibitor potency, dose response, biochemical, fluorescence intensity (AID 504765)", "details": "Recombinant PfG6PD enzyme, fluorescence intensity (NADPH)", "data": [{"compound": "CNc1nc(-c2ccccc2)[n+](-c2ccc(C)cc2)s1", "values": [{"measurement": "IC50", "value": 3.36, "unit": "µM"}]}]}
